High-throughput results deposited in PubChem BioAssay by Broad Institute.
E-selectin induc: E-selectin induction on HUVECs; activation, % at 7.58 µM; actives 0.37% (n = 260,000); AID 686992; HUVEC E-selectin immunofluorescence imaging; normalized: neutral wells 0, TNF-alpha wells 100; P16581;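 active = mean E-selectin-positive cell signal at least 10% of the positive control, reached in at least 60% of replicates, without over 20% cell loss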
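Test system – human umbilical vein endothelial cells (HUVEC), E-selectin induction · Input – 3,000 HUVEC seeded per well · Buffer or medium – EGM-2, gelatin · Compound dosing – single-point compound dose · Detection – immunofluorescence imaging · Measure – percent E-selectin-positive cells · Controls – TNF-alpha high, DMSO low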
esBAF inh: SWI/SNF esBAF complex inhibition; mouse ES cells, Bmi1-luciferase knock-in reporter, 24 h; 100% = twice the neutral-well signal; reporter increase, % at 12.5 µM; actives 2% (n = 350,000); AID 602393; in the data active = activation above about 40%;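 note: a rise in the Bmi1 reporter signal indicates esBAF inhibition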
UUG fidelity: modulators of start codon recognition fidelity in yeast. S. cerevisiae UUG-firefly luciferase reporter, luminescence/redox ratio. activity score, % at 18.7 µM. 0.13% of 350,000 active. AID 602363;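 active = replicate mean at a twofold rise or more, about +100% in these data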;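 also: firefly luciferase made from a UUG start codon reports start codon fidelity; reporter light over untreated wells divided by growth signal over untreated wells; some hits fall short of that in this replicate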
PglD inh: inhibitors of Campylobacter jejuni PglD acetyltransferase; purified PglD enzyme, DTNB colorimetric CoA detection; inhibition, % at 12.5 µM; actives 0.098% (n = 360,000); in the data active = inhibition above about 16%, passing the limit was not always enough
PGC1a acetyl inh: lowers PGC1a acetylation signal in U2OS cells; inhibition, % at 15.6 µM; AID 651687; AlphaScreen anti-acetyl-lysine; with virally co-expressed GCN5 acetyltransferase; actives 0.17% (n = 350,000);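 active = every replicate shows inhibition of at least 40%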
Statin myotox sup: suppressors of simvastatin-induced myotoxicity in C2C12 myotubes; ATP luminescence, 48 h; scaled: DMSO 0, geranylgeraniol control 100; rescue of ATP level, % at 7.49 µM; actives 0.78% (n = 330,000);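 active = mean ATP rescue above about 67%, or every replicate alone reaching that limit, limit read from the data, passing the limit was not always enough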;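 note: myotubes were challenged with 10 µM simvastatin during compound exposure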
Numbers stand for hits. Hits are enriched below; roughly 2.8% of the tested compounds scored in any of these assays.

Screening O=C(O)CCC(=O)OCC1CCCCC1 returned esBAF inh inactive, UUG fidelity inactive, PglD inh inactive, PGC1a acetyl inh inactive and Statin myotox sup 114.2.
For Cc1oc(-c2ccc(Cl)cc2)cc1C(=O)O the results were E-selectin induc inactive, esBAF inh 55.6 and Statin myotox sup inactive.
Screening Cc1oc(-c2ccccc2)cc1C(=O)Nc1cccc(C(=O)O)c1 returned esBAF inh inactive, UUG fidelity inactive, PglD inh inactive, PGC1a acetyl inh inactive and Statin myotox sup inactive.
For OC1CCCCC1Sc1nc2ccccc2s1 (stereo not drawn) the results were esBAF inh 53.5, UUG fidelity inactive, PglD inh inactive, PGC1a acetyl inh inactive and Statin myotox sup inactive.
`COc1cccc(C(=O)CSc2nccn2C)c1` gave E-selectin induc inactive, esBAF inh 44.4, UUG fidelity inactive, PglD inh inactive, PGC1a acetyl inh inactive and Statin myotox sup inactive.
`COc1cccc(C(=O)CSc2nnc(CNS(=O)(=O)c3ccc(C)cc3)n2C)c1` gave PGC1a acetyl inh 88.6.
For COC(=O)CSc1nnc(CNS(=O)(=O)c2ccc(C)cc2)n1C the results were esBAF inh inactive, UUG fidelity inactive, PglD inh inactive, PGC1a acetyl inh inactive and Statin myotox sup inactive.
For CC=Cc1ccc2n(c1=O)C[C@H]1[C@H](CO)[C@@H](C(=O)NCc3ccccc3)[C@@H]2N1Cc1ccccc1OC (mixture of isomers) the results were E-selectin induc inactive and PGC1a acetyl inh inactive.
`O=C1c2ccccc2C(=O)N1OCc1ccc(Cl)cc1` gave esBAF inh inactive, UUG fidelity inactive, PglD inh inactive, PGC1a acetyl inh inactive and Statin myotox sup 68.1.
For O=C1Cc2ccccc2C(=O)N1OCc1ccc(Cl)cc1 the results were E-selectin induc inactive, esBAF inh inactive, PGC1a acetyl inh inactive and Statin myotox sup inactive.
Screening CCN1CCN(CCCNC(=O)c2ccc(NC(=O)C3=CSCCO3)cc2)CC1 returned esBAF inh inactive, UUG fidelity inactive, PglD inh inactive and Statin myotox sup inactive.
`CCCSCCCNC(=O)c1ccc(NC(=O)C2=CSCCO2)cc1` gave esBAF inh 54.9, UUG fidelity inactive, PglD inh inactive, PGC1a acetyl inh inactive and Statin myotox sup inactive.
Screening Cc1ccc(N=C2N=C(N)c3ccccc32)cc1C returned esBAF inh 55.2, UUG fidelity inactive, PglD inh inactive, PGC1a acetyl inh inactive and Statin myotox sup inactive.
Screening C[C@@H]1CCCCO[C@H](CN(C)C(=O)c2ccncc2)[C@H](C)CN([C@H](C)CO)C(=O)c2cc(N(C)C)ccc2O1 returned E-selectin induc inactive, esBAF inh inactive, UUG fidelity inactive, PglD inh inactive, PGC1a acetyl inh inactive and Statin myotox sup inactive.
Screening O=C(NC1CCCCCC1)C(=S)NCc1ccccc1 returned E-selectin induc inactive and PGC1a acetyl inh inactive.
For O=C(NC1CCCCCC1)C1CCN(C(=O)Cc2ccccc2)CC1 the results were esBAF inh inactive, UUG fidelity inactive, PglD inh inactive, PGC1a acetyl inh inactive and Statin myotox sup inactive.
`O=C(NC1CCCCC1)C1CCN(C(=O)NCc2ccccc2)CC1` gave esBAF inh inactive, UUG fidelity inactive, PglD inh inactive, PGC1a acetyl inh inactive and Statin myotox sup 103.4.
For O=C(NC1CCCCC1)C(=S)NCc1ccccc1 the results were esBAF inh 50.4, UUG fidelity inactive, PglD inh inactive, PGC1a acetyl inh inactive and Statin myotox sup inactive.
N#CCCN1CCN(C(=S)c2ccc(-c3ccc(Cl)c(Cl)c3)o2)CC1 was read as esBAF inh 45.6, UUG fidelity inactive, PglD inh inactive, PGC1a acetyl inh inactive and Statin myotox sup inactive.
S=C(c1ccc(-c2cccc(Cl)c2)o1)N1CCCCC1 was read as E-selectin induc inactive and PGC1a acetyl inh inactive.
For N#CCCN1CCN(C(=S)c2ccc(-c3cccc(Cl)c3)o2)CC1 the results were esBAF inh 78.4, UUG fidelity inactive, PglD inh inactive, PGC1a acetyl inh inactive and Statin myotox sup inactive.
`CCCC#Cc1ccc(CC[C@H]2O[C@H]3CC[C@@H](CO)O[C@H]3C[C@H]2NS(=O)(=O)c2ccccc2)cc1` gave PGC1a acetyl inh inactive.
`Cc1noc(C)c1NC(=O)Nc1ccc2c(c1)CC(=O)N([C@@H](C)CO)C[C@@H](C)[C@@H](CN(C)Cc1ccc(C(F)(F)F)cc1)O2` gave E-selectin induc inactive, esBAF inh inactive, UUG fidelity inactive, PglD inh inactive, PGC1a acetyl inh inactive and Statin myotox sup inactive.
Screening O=C(NCc1cccnc1)c1c[nH]c2cc3c(cc2c1=O)OCCO3 returned esBAF inh 62.0, UUG fidelity inactive, PglD inh inactive, PGC1a acetyl inh inactive and Statin myotox sup inactive.
Screening COc1ccc(C2=NO[C@@H]3C(=O)N(c4ccc(C)cc4C)C(=O)[C@H]23)cc1OC returned esBAF inh inactive, UUG fidelity inactive, PglD inh inactive, PGC1a acetyl inh inactive and Statin myotox sup inactive.
Screening Cc1ccc(N2C(=O)[C@@H]3C(c4cccnc4)=NO[C@@H]3C2=O)c(C)c1 returned E-selectin induc 30.7, esBAF inh inactive, PGC1a acetyl inh inactive and Statin myotox sup inactive.
CC(=O)N(C)C[C@H]1Oc2ncc(-c3ccc(C#N)cc3)cc2C(=O)N([C@@H](C)CO)C[C@@H]1C was read as E-selectin induc inactive, esBAF inh inactive, UUG fidelity inactive, PglD inh inactive, PGC1a acetyl inh inactive and Statin myotox sup inactive.
For COc1cc(CC2C(=O)Nc3ccccc32)cc(C)c1O (stereo not drawn) the results were E-selectin induc 52.3, esBAF inh inactive, UUG fidelity inactive, PglD inh inactive, PGC1a acetyl inh inactive and Statin myotox sup inactive.
`O=C1Nc2ccccc2C1Cc1ccccn1` (stereo not drawn) gave E-selectin induc 48.3.
For C[C@@H]1CN([C@@H](C)CO)C(=O)Cc2cc(NC(=O)Nc3ccc4c(c3)OCO4)ccc2O[C@@H]1CN(C)S(=O)(=O)c1cccs1 the results were E-selectin induc inactive, esBAF inh inactive, UUG fidelity inactive, PglD inh inactive, PGC1a acetyl inh inactive and Statin myotox sup inactive.
CCN(CC)Cc1c(O)ccc2occ(C(=O)c3ccc(OC)cc3)c12 was read as esBAF inh inactive, UUG fidelity inactive, PglD inh inactive, PGC1a acetyl inh inactive and Statin myotox sup inactive.
Screening CCN(CC)Cc1c(O)ccc2c([N+](=O)[O-])c(C)n(-c3ccc(OC)cc3)c12 returned esBAF inh inactive, UUG fidelity inactive, PglD inh inactive, PGC1a acetyl inh 45.7 and Statin myotox sup inactive.
`CC(C)CC#Cc1cnc2c(c1)C(=O)N([C@@H](C)CO)C[C@@H](C)[C@@H](CN(C)C(=O)CN1CCOCC1)O2` gave E-selectin induc inactive, esBAF inh inactive, UUG fidelity inactive, PglD inh inactive, PGC1a acetyl inh inactive and Statin myotox sup inactive.
